{"sequences": {"note": "The chains behind the UniProt entries cited, without tags or fusion partners. Residues count along the entry.", "UniProt Q05941, 23-502 limits assumed": "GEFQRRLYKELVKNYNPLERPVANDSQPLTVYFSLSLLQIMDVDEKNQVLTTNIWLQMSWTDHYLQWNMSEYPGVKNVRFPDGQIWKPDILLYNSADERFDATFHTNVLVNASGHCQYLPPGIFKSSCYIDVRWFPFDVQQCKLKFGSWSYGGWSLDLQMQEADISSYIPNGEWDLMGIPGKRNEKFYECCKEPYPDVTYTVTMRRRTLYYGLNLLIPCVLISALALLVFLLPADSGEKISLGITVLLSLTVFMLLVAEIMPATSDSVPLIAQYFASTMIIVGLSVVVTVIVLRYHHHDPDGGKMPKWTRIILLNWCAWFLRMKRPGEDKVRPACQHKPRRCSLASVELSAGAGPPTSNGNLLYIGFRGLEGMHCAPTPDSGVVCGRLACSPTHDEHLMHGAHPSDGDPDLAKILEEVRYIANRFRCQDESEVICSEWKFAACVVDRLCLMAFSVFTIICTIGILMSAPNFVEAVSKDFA"}, "source": "patent US9708323B2", "about": "“Tricyclic compounds as alpha-7 nicotinic acetylcholine receptor ligands” (BRISTOL-MYERS SQUIBB COMPANY, priority 2014, dated 2017)", "note": "pEC50: −log10 of the molar value."}
{"biological_target": "α-7 nicotinic ACh receptor ion channel expressed in HEK 293 cells (Rattus norvegicus, UniProt Q05941)", "assay": "Ca2+-sensitive, fluorescence-based assay for α-7 nicotinic acetylcholine receptor channel function in mammalian cells (FLIPR)", "settings": "read-out: FLIPR α7 (EC50), Table 1, agonist Ca2+ flux", "method": "II) A Ca^2+-Sensitive, Fluorescence-Based Assay α-7 for Nicotinic Acetylcholine Receptor Channel Function in Mammalian Cells (“FLIPR”). Summary:\nLead compounds are evaluated for agonist activity at α-7, α3β4, α4αβ2, and α1β1δ1ε sub-types of nicotinic ACh receptor ion channels expressed in mammalian HEK 293 cells. Agonist potency and efficacy values are determined from kinetic fluorescence Ca^2+ influx measurements made using a 384 well FLIPR (Fluorescence Image Plate Reader). The utility of fluorescent indicators for measuring changes in intracellular divalent cation concentrations, particularly Ca^2+, for drug discovery endeavors is well documented (Rudiger, R., et al., Nature Reviews, 2003, 4:579-586; Gonzalez J. E., et al., Receptors and Channels, 2002, 8:283-295). In this assay, channel expressing HEK cell lines seeded in 384 well assay plates are loaded with a membrane permeant fluorescent Ca^2+ indicator dye, whose 510 nm green emission signal increases in response to elevation of intracellular Ca^2+ concentration. The basal fluorescence from the cells is monitored in real time, followed by the acute addition of test compounds. If the compound is an agonist at any of the non-selective cation channels, the latter open and allow the movement of extracellular Ca^2+ ions into the cell cytoplasm, where they bind to the Ca^2+ indicator dye, and produce an increase in fluorescence output signal, which is detected by a cooled CCD imaging camera.\nReagents: The acetomethoxy (AM) ester of the Ca^2+ indicator dye Fluo-4 was obtained from InVitrogen, (Carlsbad, Calif.). Acetylcholine and all buffer constituents were purchased from Sigma Chemical Company, St. Louis, Mo. G418 and Minimal Essential Medium were purchased from InVitrogen Life Technologies, Carlsbad, Calif. Fetal bovine serum was purchased from (InVitrogen, Carlsbad, Calif.).\nHEK-293 cells were grown in Minimal Essential Medium containing 10% (v/v) fetal bovine serum at 37° C. in a 5% CO2 incubator. HEK-293 cells stably expressing the ion channels were grown in the same medium with the addition of 500 μg/ml G418.\nHEK-293 cells expressing the ion channels of interest were plated in 384 well, black-walled, clear-bottomed, poly-D-lysine coated plates at a density of ˜20,000 cells/well in 20 μl of Minimal Essential Medium containing 10% (v/v) fetal bovine serum and incubated for 2 days at 29° C. in a 5% CO2 incubator. Prior to assay, cells were loaded with the Fluo-4 AM ester. Cell loading was accomplished by removing the culture medium and replacing it with 30 μl/well of the AM ester of the dye (5 μM) mixed with Hanks Balanced Salt Solution (#14175-095) containing 20 mM HEPES, 2.5 mM probenecid, 0.5 mM CaCl2, 1 mM MgCl2 and 10 μM atropine. Dye loading was allowed to proceed for 90 minutes at room temperature at which time the dye loading solution was removed and replaced with 40 μl/well of Hanks buffer. Cells loaded with dye were loaded onto a FLIPR384 (Molecular Devices, Sunnyvale, Calif.). Fluo-4 dye was excited using the 488 nm line of an argon laser. Emission was filtered using a 540+/−30 nm bandpass filter. For evaluation of the effects of test compounds using the Ca^2+ flux assay, compounds to be tested were provided in assay ready plates. For nicotinic receptor ion channel expressing cells, the assay was initiated by the addition of 20 μl/well of Hanks buffer containing test compounds. For all assays, data were collected at 1 Hz for 10 seconds (baseline), at which time the compound containing stimulus buffers are added, and further measurements collected at 0.33 Hz for 3 min.\nThe statistical robustness of the nicotinic receptor Ca^2+ flux assays is determined from blanks and totals wells. The totals wells define maximal channel activation for each compound test plate (Maximum efficacious dose of acetylcholine), and the blanks wells which contain matched DMSO only, define zero channel activation. […]"}
{"smiles": "O=C(c1cc2ccccc2o1)N1CC2CN3CCC2C1C3", "note": "(stereo not drawn)", "pEC50": 5.35}
{"smiles": "O=C(c1cc2c(Cl)cccc2s1)N1CC2CN3CCC2C1C3", "note": "(stereo not drawn)", "pEC50": "< 4.00"}
{"smiles": "O=C(c1ccncc1)N1CC2CN3CCC2C1C3", "note": "(stereo not drawn)", "pEC50": "< 4.00"}
{"smiles": "O=C(c1cc2ccccc2[nH]1)N1CC2CN3CCC2C1C3", "note": "(stereo not drawn)", "pEC50": "< 4.00"}
{"smiles": "COc1cccc2[nH]nc(C(=O)N3CC4CN5CCC4C3C5)c12", "note": "(stereo not drawn)", "pEC50": 4.66}
{"smiles": "O=C(c1ccsc1)N1CC2CN3CCC2C1C3", "note": "(stereo not drawn)", "pEC50": "< 4.00"}
{"smiles": "O=C(c1ccnc2ccccc12)N1CC2CN3CCC2C1C3", "note": "(stereo not drawn)", "pEC50": "< 4.00"}
{"smiles": "O=C(c1csc(-c2ccccc2)n1)N1CC2CN3CCC2C1C3", "note": "(stereo not drawn)", "pEC50": "< 4.00"}
{"smiles": "COc1ncccc1C(=O)N1CC2CN3CCC2C1C3", "note": "(stereo not drawn)", "pEC50": "< 4.00"}
{"smiles": "O=C(c1cccc2ccccc12)N1CC2CN3CCC2C1C3", "note": "(stereo not drawn)", "pEC50": "< 4.00"}
{"smiles": "O=C(c1cccc2c1OCC2)N1CC2CN3CCC2C1C3", "note": "(stereo not drawn)", "pEC50": "< 4.00"}
{"smiles": "Cn1cc(C(=O)N2CC3CN4CCC3C2C4)c2ccccc21", "note": "(stereo not drawn)", "pEC50": "< 4.00"}
{"smiles": "O=C(c1cc2ccccc2s1)N1CC2CN3CCC2C1C3", "note": "(stereo not drawn)", "pEC50": 6.23}
{"smiles": "O=C(c1n[nH]c2ccc(Cl)cc12)N1CC2CN3CCC2C1C3", "note": "(stereo not drawn)", "pEC50": 6.40}
{"smiles": "O=C(c1cnccn1)N1CC2CN3CCC2C1C3", "note": "(stereo not drawn)", "pEC50": "< 4.00"}
{"smiles": "O=C(c1ccc2c(c1)OCO2)N1CC2CN3CCC2C1C3", "note": "(stereo not drawn)", "pEC50": "< 4.00"}
{"smiles": "Cc1cc(C(=O)N2CC3CN4CCC3C2C4)no1", "note": "(stereo not drawn)", "pEC50": "< 4.00"}
{"smiles": "O=C(c1ccno1)N1CC2CN3CCC2C1C3", "note": "(stereo not drawn)", "pEC50": "< 4.00"}
{"smiles": "O=C(c1n[nH]c2ccc(Br)cc12)N1CC2CN3CCC2C1C3", "note": "(stereo not drawn)", "pEC50": "< 4.00"}
{"smiles": "O=C(c1csnn1)N1CC2CN3CCC2C1C3", "note": "(stereo not drawn)", "pEC50": "< 4.00"}
{"smiles": "Cc1ccc(C(=O)N2CC3CN4CCC3C2C4)s1", "note": "(stereo not drawn)", "pEC50": 5.18}
{"smiles": "O=C(c1ccc(-c2ccccc2)o1)N1CC2CN3CCC2C1C3", "note": "(stereo not drawn)", "pEC50": "< 4.00"}
{"smiles": "O=C(c1ccco1)N1CC2CN3CCC2C1C3", "note": "(stereo not drawn)", "pEC50": "< 4.00"}
{"smiles": "O=C(c1cnc2ccccc2n1)N1CC2CN3CCC2C1C3", "note": "(stereo not drawn)", "pEC50": "< 4.00"}
{"smiles": "Cn1nc(C(=O)N2CC3CN4CCC3C2C4)c2ccccc21", "note": "(stereo not drawn)", "pEC50": "< 4.00"}
{"smiles": "Cc1nn(-c2ccccc2)nc1C(=O)N1CC2CN3CCC2C1C3", "note": "(stereo not drawn)", "pEC50": "< 4.00"}
{"smiles": "O=C(c1cncnc1)N1CC2CN3CCC2C1C3", "note": "(stereo not drawn)", "pEC50": "< 4.00"}
{"smiles": "O=C(c1ccc2cnccc2n1)N1CC2CN3CCC2C1C3", "note": "(stereo not drawn)", "pEC50": "< 4.00"}
{"smiles": "O=C(c1cccs1)N1CC2CN3CCC2C1C3", "note": "(stereo not drawn)", "pEC50": "< 4.00"}
{"smiles": "Cc1csc(C(=O)N2CC3CN4CCC3C2C4)c1", "note": "(stereo not drawn)", "pEC50": "< 4.00"}
{"smiles": "O=C(c1ccnnc1)N1CC2CN3CCC2C1C3", "note": "(stereo not drawn)", "pEC50": "< 4.00"}
{"smiles": "COc1ccccc1C(=O)N1CC2CN3CCC2C1C3", "note": "(stereo not drawn)", "pEC50": "< 4.00"}
{"smiles": "O=C(c1ccccn1)N1CC2CN3CCC2C1C3", "note": "(stereo not drawn)", "pEC50": "< 4.00"}
{"smiles": "Cc1cnc(C(=O)N2CC3CN4CCC3C2C4)cn1", "note": "(stereo not drawn)", "pEC50": 5.41}
{"smiles": "Cn1ccnc1C(=O)N1CC2CN3CCC2C1C3", "note": "(stereo not drawn)", "pEC50": "< 4.00"}
{"smiles": "O=C(c1ccc2ncsc2c1)N1CC2CN3CCC2C1C3", "note": "(stereo not drawn)", "pEC50": "< 4.00"}
{"smiles": "O=C(c1ccc2nccnc2c1)N1CC2CN3CCC2C1C3", "note": "(stereo not drawn)", "pEC50": 4.60}
{"smiles": "O=C(c1ccc(Cl)cc1)N1CC2CN3CCC2C1C3", "note": "(stereo not drawn)", "pEC50": "< 4.00"}
{"smiles": "O=C(c1ccc2ccccc2n1)N1CC2CN3CCC2C1C3", "note": "(stereo not drawn)", "pEC50": "< 4.00"}
{"smiles": "O=C(c1nc2ccccc2s1)N1CC2CN3CCC2C1C3", "note": "(stereo not drawn)", "pEC50": "< 4.00"}
{"smiles": "O=C(c1csc(-c2cccnc2)n1)N1CC2CN3CCC2C1C3", "note": "(stereo not drawn)", "pEC50": "< 4.00"}
{"smiles": "Cc1cccc(C(=O)N2CC3CN4CCC3C2C4)n1", "note": "(stereo not drawn)", "pEC50": "< 4.00"}
{"smiles": "COc1ccc2c(C(=O)N3CC4CN5CCC4C3C5)n[nH]c2c1", "note": "(stereo not drawn)", "pEC50": 5.96}
{"smiles": "O=C(c1cscn1)N1CC2CN3CCC2C1C3", "note": "(stereo not drawn)", "pEC50": "< 4.00"}
{"smiles": "O=C(c1cnc2ccccc2c1)N1CC2CN3CCC2C1C3", "note": "(stereo not drawn)", "pEC50": 4.74}
